Format in all cases: functional, cell-based
Experiment [1] has as its target 5-hydroxytryptamine receptor 2A (Homo sapiens, UniProt P28223). The experiment can be described thus: Agonist activity at human 5HT2A receptor expressed in HEK293 cells assessed as intracellular IP3 accumulation. Summed up: (§1)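 Functional agonist assay read out as [3H]phosphoinositol turnover; potency expressed as pEC50.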
Experiment [2] has as its target 5-hydroxytryptamine receptor 2B (Homo sapiens, UniProt P41595). The experiment can be described thus: Agonist activity at human 5HT2B receptor expressed in HEK293 cells assessed as intracellular IP3 accumulation. Summed up: as §1
For experiment [3], the target named is 5-hydroxytryptamine receptor 2C (Homo sapiens, UniProt P28335). The experiment can be described thus: Agonist activity at human 5HT2C receptor expressed in HEK293 cells assessed as intracellular IP3 accumulation. Summed up:
as §1

Amino acid sequences for entries named in this document (tags omitted). A change or cut given only in a name is not applied to a line headed by its entry.
UniProt P28223, whole entry: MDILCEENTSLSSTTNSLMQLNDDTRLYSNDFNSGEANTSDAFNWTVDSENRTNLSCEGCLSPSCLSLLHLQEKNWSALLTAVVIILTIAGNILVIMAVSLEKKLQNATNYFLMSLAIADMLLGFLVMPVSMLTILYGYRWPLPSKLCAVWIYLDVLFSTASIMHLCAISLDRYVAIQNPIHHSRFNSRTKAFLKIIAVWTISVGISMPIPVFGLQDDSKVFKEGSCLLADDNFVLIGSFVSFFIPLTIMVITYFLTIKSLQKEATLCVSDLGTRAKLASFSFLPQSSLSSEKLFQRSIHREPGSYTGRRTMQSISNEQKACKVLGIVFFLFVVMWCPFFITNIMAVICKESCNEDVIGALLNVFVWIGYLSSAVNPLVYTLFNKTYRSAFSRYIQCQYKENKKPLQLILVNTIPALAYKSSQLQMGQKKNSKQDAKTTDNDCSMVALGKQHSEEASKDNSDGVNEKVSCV
UniProt P41595, whole entry: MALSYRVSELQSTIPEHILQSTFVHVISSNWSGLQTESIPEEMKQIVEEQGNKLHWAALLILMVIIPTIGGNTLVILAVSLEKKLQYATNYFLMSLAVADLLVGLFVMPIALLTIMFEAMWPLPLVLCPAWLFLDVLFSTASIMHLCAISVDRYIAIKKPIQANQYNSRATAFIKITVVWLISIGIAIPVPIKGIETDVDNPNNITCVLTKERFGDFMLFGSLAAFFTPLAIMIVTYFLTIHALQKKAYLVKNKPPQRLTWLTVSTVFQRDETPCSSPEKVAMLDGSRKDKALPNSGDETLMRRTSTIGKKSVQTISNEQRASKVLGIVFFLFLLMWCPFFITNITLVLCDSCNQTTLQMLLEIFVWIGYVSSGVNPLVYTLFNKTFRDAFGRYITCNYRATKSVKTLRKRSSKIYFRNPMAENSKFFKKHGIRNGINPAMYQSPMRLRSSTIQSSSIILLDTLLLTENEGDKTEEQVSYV
UniProt P28335: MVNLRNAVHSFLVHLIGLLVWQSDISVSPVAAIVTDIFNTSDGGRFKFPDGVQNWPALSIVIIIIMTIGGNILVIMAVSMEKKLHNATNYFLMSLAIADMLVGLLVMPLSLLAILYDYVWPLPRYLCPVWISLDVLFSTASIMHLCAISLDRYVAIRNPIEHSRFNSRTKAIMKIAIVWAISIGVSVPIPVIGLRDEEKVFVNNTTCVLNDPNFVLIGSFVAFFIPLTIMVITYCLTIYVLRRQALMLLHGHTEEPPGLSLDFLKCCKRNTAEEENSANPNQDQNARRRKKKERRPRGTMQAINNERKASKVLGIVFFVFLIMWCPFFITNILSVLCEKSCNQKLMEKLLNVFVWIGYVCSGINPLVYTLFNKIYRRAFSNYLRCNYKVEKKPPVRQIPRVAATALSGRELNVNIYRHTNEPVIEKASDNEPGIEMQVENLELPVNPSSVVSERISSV

By EC50 is commonly meant the concentration at which the effect is half-maximal.

`Clc1cccc(N2CCNCC2)c1` [CHLOROPHENYLPIPERAZINE]: the EC50 in experiment [1] is 63.1 nM; in experiment [2], 39.8 nM; in experiment [3] it was 7.94 nM.

The values are drawn from ChEMBL document CHEMBL1140712 (J Med Chem, 2008).
